{
  "source": "patent US20050220715A1",
  "about": "“Methods and compositions for improving drug safety” (Lotus Pharmaceutical Co., Ltd., priority 2004, published 2005)",
  "origin": "cited, not measured here",
  "molecular_target": "T1, progesterone receptors (Homo sapiens, UniProt P06401)",
  "T1 sequence (P06401 1-933)": "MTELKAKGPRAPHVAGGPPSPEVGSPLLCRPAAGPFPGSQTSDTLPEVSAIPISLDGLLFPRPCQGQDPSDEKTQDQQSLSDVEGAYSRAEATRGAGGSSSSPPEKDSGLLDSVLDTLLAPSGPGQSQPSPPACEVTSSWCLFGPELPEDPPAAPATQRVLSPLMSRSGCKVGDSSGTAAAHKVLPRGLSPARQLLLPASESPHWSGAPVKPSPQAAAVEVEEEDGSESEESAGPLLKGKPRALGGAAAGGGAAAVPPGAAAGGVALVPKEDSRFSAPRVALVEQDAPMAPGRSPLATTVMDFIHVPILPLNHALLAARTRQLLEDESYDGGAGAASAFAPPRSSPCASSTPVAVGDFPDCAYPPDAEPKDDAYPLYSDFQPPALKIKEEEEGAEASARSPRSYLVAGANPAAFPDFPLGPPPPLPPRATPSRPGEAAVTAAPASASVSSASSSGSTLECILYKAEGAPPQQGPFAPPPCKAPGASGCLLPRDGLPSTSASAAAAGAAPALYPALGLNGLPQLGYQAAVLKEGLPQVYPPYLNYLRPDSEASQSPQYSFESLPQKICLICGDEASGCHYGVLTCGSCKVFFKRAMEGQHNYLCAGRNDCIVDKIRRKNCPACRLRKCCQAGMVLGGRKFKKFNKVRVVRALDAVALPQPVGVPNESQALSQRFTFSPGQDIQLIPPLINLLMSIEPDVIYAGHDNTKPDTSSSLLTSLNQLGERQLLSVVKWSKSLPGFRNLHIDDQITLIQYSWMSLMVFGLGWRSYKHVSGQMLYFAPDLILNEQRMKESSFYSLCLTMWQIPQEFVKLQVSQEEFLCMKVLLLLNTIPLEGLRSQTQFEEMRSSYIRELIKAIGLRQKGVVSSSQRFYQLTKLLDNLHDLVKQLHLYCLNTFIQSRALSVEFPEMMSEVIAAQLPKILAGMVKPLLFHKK",
  "details": "cited from earlier work",
  "data": [
    {"smiles": "CC#C[C@]1(O)CC[C@H]2[C@@H]3CCC4=CC(=O)CCC4=C3[C@@H](c3ccc(N(C)C)cc3)C[C@@]21C", "note": "[Mifepristone, 17β-hydroxy-11β-(4-dimethylaminophenyl)-17α-(1-propynyl)-estra-4,9-dien-3-one]", "values": [
      {"measurement": "affinity for the progesterone receptors", "value": "high affinity"}
    ]}
  ]
}
